Test system: Rattus norvegicus
Assay: Toxicity in Wistar rat assessed as effect on colonic ICAM1 level administered rectally into colon by ELISA
Details: in vivo, other, strain Wistar

With `O=[N+]([O-])c1cc([N+](=O)[O-])c(S(=O)(=O)O)c([N+](=O)[O-])c1` the Activity was “Non-toxic”.

From ChEMBL document CHEMBL3585265, “Bacteria-Derived Compatible Solutes Ectoine and 5α-Hydroxyectoine Act as Intestinal Barrier Stabilizers to Ameliorate Experimental Inflammatory Bowel Disease” (J Nat Prod, 2015)
